## scFv variants of Ab-14 (light chain) against a SARS-CoV-2 spike peptide

Antigen: PDVDLGDISGINAS, a 14-residue peptide of the SARS-CoV-2 spike HR2 region.

Parent: Ab-14, a human scFv built as VH, three GGGGS repeats, VL. Only the CDRs of the light chain vary.
VH: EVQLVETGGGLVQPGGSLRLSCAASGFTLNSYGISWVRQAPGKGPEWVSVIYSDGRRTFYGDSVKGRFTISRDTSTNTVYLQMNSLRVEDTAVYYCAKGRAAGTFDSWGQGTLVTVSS
VL: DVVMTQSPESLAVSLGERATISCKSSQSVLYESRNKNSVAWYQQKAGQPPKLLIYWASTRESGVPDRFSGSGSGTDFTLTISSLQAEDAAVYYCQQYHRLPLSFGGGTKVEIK

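The parent was found by panning a naive human phage display library on the peptide. AAYL50 was designed without a model: most single CDR substitutions and a random sample of double and triple ones. AlphaSeq pools MATa yeast showing the antibodies with MATalpha yeast showing the peptide. Binding brings cells together so that they mate, and sequencing counts the barcode pairs among the diploids. A regression on co-assayed BCL2-family reference pairs converts the normalised counts of each replicate to an apparent Kd. There are three technical replicates.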

Each variant's VL is given in full. Values are log10 of the apparent Kd in nM; lower means stronger binding. The mean shown is taken over the replicates in which the pair was detected. An entry "n.d." has no value in the source: the pair was not observed among the diploids in that replicate. This suggests poor binding but is not conclusive. Nonspecific signal, from three strains lacking the peptide, appeared in 18% of pairings of library AAYL50, centred on 4.19 (5% of these signals below 2.99); values are not corrected for it. The control count says in how many pairings with the empty strains this scFv gave a signal, with their mean in brackets.

VL,"replicates, log10 nM","mean, log10 nM",signal with controls
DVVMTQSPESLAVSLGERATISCKSSVSVLYESRNKNSVAWYQQKAGQPPKLLIYWASLRESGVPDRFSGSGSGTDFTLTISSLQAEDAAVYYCQQYHRLPQSFGGGTKVEIK,n.d. / n.d. / n.d.,n.d.,0/9
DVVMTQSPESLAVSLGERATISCKSSQSVQYESRNKFSVAWYQQKAGQPPKLLIYWASTREVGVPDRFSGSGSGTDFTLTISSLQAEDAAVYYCQQYHRLPLSFGGGTKVEIK,0.77 / 1.20 / 1.13,1.04,0/9
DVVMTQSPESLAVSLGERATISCKSSQSVLYISRNKNSVAWYQQKAGQPPKLLIYWASTRESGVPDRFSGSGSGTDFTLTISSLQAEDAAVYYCQQYHRLPLKFGGGTKVEIK,n.d. / n.d. / n.d.,n.d.,0/9
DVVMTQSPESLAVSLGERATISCKKSQSVLYESRNKNSVAWYQQKAGQPPKLLIYWASTVESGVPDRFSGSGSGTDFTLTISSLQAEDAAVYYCQGYHRLPLSFGGGTKVEIK,n.d. / n.d. / n.d.,n.d.,1/9 (3.16)
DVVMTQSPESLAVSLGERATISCKSSQDVLYESRNKNHVAWYQQKAGQPPKLLIYWASTRHSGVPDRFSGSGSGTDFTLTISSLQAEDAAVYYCQQYHRLPLSFGGGTKVEIK,1.47 / 1.44 / 1.59,1.50,0/9
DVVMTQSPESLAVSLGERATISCKSSNSWLYESRNKNSVAWYQQKAGQPPKLLIYWASTRESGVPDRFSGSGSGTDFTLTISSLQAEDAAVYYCQQYHRLPLDFGGGTKVEIK,1.35 / 1.51 / 1.63,1.50,3/9 (3.67)
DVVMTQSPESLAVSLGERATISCKSRQSVLYESRNKNSVAWYQQKAGQPPKLLIYWASTRESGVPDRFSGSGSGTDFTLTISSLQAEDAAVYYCQQSHRLPLIFGGGTKVEIK,2.35 / 2.61 / 2.32,2.43,2/9 (3.61)
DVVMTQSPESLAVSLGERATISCKSSQSVLYESRNKESVAWYQQKAGQPPKLLIYWAPTRESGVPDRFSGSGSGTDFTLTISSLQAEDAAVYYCQQYCRLPLSFGGGTKVEIK,n.d. / 3.45 / n.d.,3.45,0/9
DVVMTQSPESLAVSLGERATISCKSSQSVLYESRNKRSPAWYQQKAGQPPKLLIYWASTRESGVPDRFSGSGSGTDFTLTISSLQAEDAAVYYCQQPHRLPLSFGGGTKVEIK,n.d. / n.d. / n.d.,n.d.,0/9
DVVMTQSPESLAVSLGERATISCKSSQSVLYEDVNKNSVAWYQQKAGQPPKLLIYWASTRNSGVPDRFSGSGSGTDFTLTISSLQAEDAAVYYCQQYHRLPLSFGGGTKVEIK,0.07 / 0.43 / 0.21,0.24,0/9
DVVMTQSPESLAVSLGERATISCKSSQLVLYESCNKNSVAWYQQKAGQPPKLLIYWASTRESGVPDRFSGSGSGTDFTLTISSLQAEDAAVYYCQQYLRLPLSFGGGTKVEIK,1.48 / 1.68 / 1.27,1.47,0/9
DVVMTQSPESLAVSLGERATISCKSSQSVLYEQRNKNSVAWYQQKAGQPPKLLIYWARTRESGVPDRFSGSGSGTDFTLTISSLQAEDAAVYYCQQYHRLPLSFGGGTKVEIK,2.28 / 2.10 / 2.98,2.45,0/9
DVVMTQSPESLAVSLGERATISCKSSQSVLYESSNKNSVAWYQQKAGQPPKLLIYWASTRERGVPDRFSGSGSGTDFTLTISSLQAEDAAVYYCQQYHFLPLSFGGGTKVEIK,n.d. / n.d. / n.d.,n.d.,1/9 (3.44)
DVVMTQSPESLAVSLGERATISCKSSQLVLYEDRNKNSVAWYQQKAGQPPKLLIYWASHRESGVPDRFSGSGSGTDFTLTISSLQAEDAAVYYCQQYHRLPLSFGGGTKVEIK,1.56 / 2.87 / 1.52,1.98,1/9 (2.28)
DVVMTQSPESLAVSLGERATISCKSSQSVCYESRNKNSWAWYQQKAGQPPKLLIYWASTRESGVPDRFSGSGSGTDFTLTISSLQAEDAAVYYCHQYHRLPLSFGGGTKVEIK,n.d. / 4.44 / n.d.,4.44,4/9 (4.18)
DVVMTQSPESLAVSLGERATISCFSSQSVLYESRNKNSVAWYQQKAGQPPKLLIYAASTRESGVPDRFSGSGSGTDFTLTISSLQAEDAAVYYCQQCHRLPLSFGGGTKVEIK,0.31 / 0.43 / 0.22,0.32,4/9 (4.53)
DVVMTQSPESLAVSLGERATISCKSSQSVLYESRNKNSVAWYQQKAGQPPKLLIYWAATRESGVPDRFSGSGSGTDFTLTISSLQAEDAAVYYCQQYHRLPGEFGGGTKVEIK,n.d. / n.d. / n.d.,n.d.,3/9 (4.07)
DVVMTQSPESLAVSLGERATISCKSSQSVLYESRNKNSVAWYQQKAGQPPKLLIYGASTREHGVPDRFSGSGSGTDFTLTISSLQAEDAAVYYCQSYHRLPLSFGGGTKVEIK,-0.24 / 0.13 / -0.12,-0.07,1/9 (3.40)
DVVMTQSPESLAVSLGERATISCKSSQSVLYEKRNKKCVAWYQQKAGQPPKLLIYWASTRESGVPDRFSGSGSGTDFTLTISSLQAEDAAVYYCQQYHRLPLSFGGGTKVEIK,n.d. / 3.96 / 3.16,3.56,3/9 (4.41)
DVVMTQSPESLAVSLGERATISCLSSQSVLPTSRNKNSVAWYQQKAGQPPKLLIYWASTRESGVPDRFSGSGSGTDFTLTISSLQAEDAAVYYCQQYHRLPLSFGGGTKVEIK,n.d. / 2.85 / n.d.,2.85,1/9 (2.66)
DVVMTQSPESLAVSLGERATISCKSSQSVLYESQGKNSVAWYQQKAGQPPKLLIYWASTRESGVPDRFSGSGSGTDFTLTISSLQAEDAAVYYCQQYHRLPLSFGGGTKVEIK,0.52 / 0.71 / 0.50,0.58,1/9 (2.59)
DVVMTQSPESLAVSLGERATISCKSSQTVLTEVRNKNSVAWYQQKAGQPPKLLIYWASTRESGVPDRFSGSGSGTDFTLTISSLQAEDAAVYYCQQYHRLPLSFGGGTKVEIK,0.96 / 1.08 / 1.05,1.03,4/9 (4.69)
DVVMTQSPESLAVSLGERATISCKSSVSVLYESRNKNSVAWYQQKAGQPPKLLIYWASTEESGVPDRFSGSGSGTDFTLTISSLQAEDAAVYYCQQYHRLPLSFGGGTKVEIK,n.d. / n.d. / n.d.,n.d.,0/9
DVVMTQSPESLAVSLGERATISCKSSQSVLYESRAKNSVAWYQQKAGQPPKLLIYWASYRESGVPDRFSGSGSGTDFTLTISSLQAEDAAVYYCQQQHRLPLSFGGGTKVEIK,n.d. / n.d. / n.d.,n.d.,0/9
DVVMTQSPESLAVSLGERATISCKSSQSVLYESRNKNSVAWYQQKAGQPPKLLIYWASTRESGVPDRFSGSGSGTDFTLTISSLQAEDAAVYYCTQCHRLPLEFGGGTKVEIK,1.33 / 1.49 / 1.47,1.43,4/9 (4.48)

Extract of 2 entries:

| VL | replicates, log10 nM | mean, log10 nM | signal with controls |
|---|---|---|---|
| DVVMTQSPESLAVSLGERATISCKSSQSVLYESSNKNSVAWYQQKAGQPPKLLIYWASTRERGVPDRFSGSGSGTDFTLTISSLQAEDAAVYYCQQYHFLPLSFGGGTKVEIK | n.d. / n.d. / n.d. | n.d. | 1/9 (3.44) |
| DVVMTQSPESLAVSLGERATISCKSSQLVLYESCNKNSVAWYQQKAGQPPKLLIYWASTRESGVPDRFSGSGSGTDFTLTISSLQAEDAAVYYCQQYLRLPLSFGGGTKVEIK | 1.48 / 1.68 / 1.27 | 1.47 | 0/9 |

Source: Engelhart et al. 2022 (doi:10.1038/s41597-022-01779-4), MIT Lincoln Laboratory and A-Alpha Bio; data file from the FLAb repository.